Measured values taken from ChEMBL document CHEMBL2203137, “Design, synthesis, biochemical studies, cellular characterization, and structure-based computational studies of small molecules targeting the urokinase receptor” (Bioorg Med Chem, 2012).

Key:
Type in all cases: functional, cell-based
A549 = assay: Inhibition of cell invasion in human A549 cells after 16 hrs by matrigel assay
NCI-H460 = assay: Inhibition of cell invasion in human H460 cells after 16 hrs by matrigel assay
NCI-H1299 [1] = assay: Inhibition of cell invasion in human H1299 cells after 16 hrs by matrigel assay
NCI-H1299 [2] = assay: Inhibition of cell migration in human H1299 cells after 16 hrs by Boyden chamber analysis

Measured: inhibition

O=C(O)c1cccc(Nc2cc(N3CCCCCC3)c3noc4c3c2C(=O)c2ccccc2-4)c1
active: A549 = Dose-dependent effect | NCI-H460 = Dose-dependent effect | NCI-H1299 [1] Dose-dependent effect | NCI-H1299 [2] Dose-dependent effect
